The entries are a selection whose mix differs from that of the whole data set. The source made the active and inactive calls. No stated cut-off is given here; in the data, active means inhibition above about 40%; inactive means the rest.

Protein sequences, listed by entry. Tags and fused reporters are not part of them.
UniProt Q8N884, whole entry: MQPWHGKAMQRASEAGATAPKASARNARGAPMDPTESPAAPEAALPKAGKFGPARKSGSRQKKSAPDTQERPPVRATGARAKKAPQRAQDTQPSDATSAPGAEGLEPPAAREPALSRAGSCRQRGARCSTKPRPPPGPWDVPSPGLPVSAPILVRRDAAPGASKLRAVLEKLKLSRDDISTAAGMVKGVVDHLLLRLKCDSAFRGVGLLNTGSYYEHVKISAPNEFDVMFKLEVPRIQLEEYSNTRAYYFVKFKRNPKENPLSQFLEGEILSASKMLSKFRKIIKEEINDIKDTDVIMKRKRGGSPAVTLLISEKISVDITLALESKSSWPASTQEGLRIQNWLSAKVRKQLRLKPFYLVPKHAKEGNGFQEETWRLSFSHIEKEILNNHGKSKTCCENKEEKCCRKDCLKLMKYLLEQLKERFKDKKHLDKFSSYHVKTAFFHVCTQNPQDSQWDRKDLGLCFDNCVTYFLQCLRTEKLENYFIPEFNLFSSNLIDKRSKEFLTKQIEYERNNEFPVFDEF

The assay deals with Cyclic GMP-AMP synthase (Homo sapiens) (UniProt Q8N884). Kind of assay: Biochemical Kinase-Glo luminescence primary assay, human cyclic GMP-AMP synthase inhibition (AID 1259398).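 Further: 0% = vehicle reaction and 100% = reaction without DNA for no activity.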 Particulars: recombinant h-cGAS, ATP depletion, at 12.5 µM, stronger effect = higher value. A general note: Kinase-Glo measures the ATP left after a reaction by luminescence.
`CN(CCCl)CCCl`: the inhibition – broadly, the drop in the measured response relative to a control, in per cent – is inactive: 3.1%.
